## Yeast mating assay B: variants of the scFv Ab-14

Target peptide (SARS-CoV-2 spike, HR2 region): PDVDLGDISGINAS

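Designed CDR sequences, proposed from the first random library and measured here. Their group label is 14H_GPLM_Gibbs (GPLM: also part of the Gaussian process libraries; Gibbs: Gibbs sampling; a sequence that several methods proposed may carry one label only). Affinity was read by AlphaSeq, a pooled yeast mating assay with surface-displayed partners. The frequency of each diploid, read from paired DNA barcodes, reflects how well the two displayed proteins bind. The ratio of observed to expected reads was calibrated, replicate by replicate, on BCL2-family standards whose Kd was known from biolayer interferometry. Each pool was mated in six replicate cultures.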

Parent: Ab-14, a human scFv built as VH, a (GGGGS)3 linker, VL. Only the CDRs of the heavy chain vary.
VH: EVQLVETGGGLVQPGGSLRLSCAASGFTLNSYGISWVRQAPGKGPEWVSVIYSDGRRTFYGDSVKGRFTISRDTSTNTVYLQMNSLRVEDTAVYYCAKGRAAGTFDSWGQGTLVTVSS
VL: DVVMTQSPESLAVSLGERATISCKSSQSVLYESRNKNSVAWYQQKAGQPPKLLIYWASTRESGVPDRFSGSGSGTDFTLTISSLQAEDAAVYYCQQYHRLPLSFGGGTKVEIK

The parent's heavy chain CDRs are GFTLNSYGIS, VIYSDGRRTFYGDSVK, GRAAGTFDS; each variant's own CDRs replace them letter for letter.
Scale: log10 of Kd in nM, estimated from mating counts; low values are strong binders.
"n.d." means that the variant was in the library but no mating with the target was seen in that replicate; the authors take this as a sign of poor binding, and no number exists.
As a blank, each scFv also met three strains without target: over all heavy chain designs, 1% of these pairings were detected, typically at 2.08 and seldom below 0.84. Also given: how often the same scFv was detected with the empty control strains, with their mean in brackets.
A sequence measured in both rounds can read differently, since the two assays cover different ranges.
In the paper, a design with two or fewer of six values counts as a poor binder.
The parent sequence was in this pool as ten entries: three were never detected, three once, and four in most replicates, with averages from 0.34 to 2.37.

CDR-H1	CDR-H2	CDR-H3	log10 Kd, replicates	empty controls
GFNLNSYGIS	VIYSDGRRTFYIDSVK	GHVAGTFDS	n.d. / 1.55 / 0.56 / 0.34 / n.d. / 1.03	0 of 18
GFDLNSYGIS	VIYSDGKRTFYIDSVK	GRAAGTFDS	0.33 / 0.18 / 0.68 / 0.54 / 0.55 / 0.20	0 of 18
GFNLNSYGIS	VIYSDGRRTFYGDSVK	GVEAGTFDS	0.88 / 0.54 / 0.00 / 0.37 / 0.11 / 0.46	2 of 18 (2.32)
GFDLNSYGIS	VIYSDGRRTFYKDSVK	GKTAGTFDS	-0.01 / -0.12 / 0.01 / -0.27 / 0.04 / 0.15	1 of 18 (2.44)
GFDLNSYGIS	VIYSDGRRTFYIDSVK	GKTAGTFDS	0.31 / 0.07 / -0.04 / -0.01 / -0.09 / 0.07	1 of 18 (3.76)
GFSLNEYGIS	VIYSDGRRTFYIDSVK	GREAGTFDS	-0.68 / -0.49 / -0.14 / -0.45 / -0.54 / -0.11	0 of 18
GFDLNSYGIS	VIYSDGRRTFYADSVK	GRLAGTFDS	1.13 / 0.15 / -0.13 / 0.31 / -0.07 / 0.26	1 of 18 (0.91)
GFDLNSYGIS	VIYSDGRRTFYGDSVK	GNTAGTFDR	0.27 / 0.03 / 0.09 / -0.05 / -0.06 / 0.26	1 of 18 (0.40)
GFTLNSYGIS	VIYSDGKRTFYGDDVK	GEAAGTFDT	0.84 / 0.65 / 0.78 / 0.10 / 0.20 / 0.68	2 of 18 (1.95)
GFLLNDYGIS	VIYSDGRRTFYIDSVK	GRAAGTFDS	0.62 / 0.53 / 1.08 / 0.20 / 0.51 / 0.44	1 of 18 (0.95)
GFVLNSYGIS	VIYSDGRRTFYADSVK	GQTAGTFDT	1.01 / 0.86 / 0.83 / 0.87 / 1.20 / 0.76	0 of 18
GFTLNDYGIS	VIYSDGRRTFYIDSVK	GHAAGTFDS	n.d. / -0.85 / -0.66 / -0.41 / -0.78 / 0.51	0 of 18
GFDLNSYGIS	VIYSDGRRTWYGDSVK	GQAAGTFDS	0.65 / 0.55 / 0.01 / 0.82 / 0.10 / 0.83	0 of 18
GFELNSYGIS	VIYSDGRRTFYSDSVK	GSAAGTFDS	1.90 / 1.22 / 0.86 / 1.20 / 1.39 / 1.78	2 of 18 (2.64)
GFDLNSYGIS	VIYSDGRRTFYGDSVK	GRIAGTFDT	0.08 / -0.09 / 0.25 / -0.25 / -0.24 / 0.03	1 of 18 (2.75)
GFSLNMYGIS	VIYSDGRRTFYSDSVK	GEAAGTFDS	1.27 / 0.69 / 0.52 / 0.68 / 0.86 / 0.75	0 of 18
GFQLNSYGIS	VIYSDGRRTFYSDSVK	GKAAGTFDS	1.33 / 0.79 / n.d. / -0.52 / 0.90 / n.d.	0 of 18
GFTLESYGIS	VIYSDGRRTFYIDSVK	GQAAGTFDS	n.d. / 1.75 / 0.94 / n.d. / n.d. / 2.25	0 of 18
GFELNSYGIS	VIYSDGRRTFYGDSVK	GEAAGTFDK	n.d. / n.d. / 0.59 / 0.10 / 1.05 / 1.04	0 of 18
GFQLNSYGIS	VIYSDGRRTFYADSVK	GNVAGTFDS	0.17 / -0.02 / -0.17 / -0.08 / 0.26 / 0.16	0 of 18
GFNLNSYGIS	VIYSDGRRTFYVDDVK	GRQAGTFDS	n.d. / 1.90 / 0.96 / 0.90 / 1.41 / n.d.	0 of 18
KFNLNSYGIS	VIYSDGRRTFYGDSVK	GRNAGTFDS	n.d. / n.d. / n.d. / n.d. / n.d. / n.d.	0 of 18
GFNLNSYGIS	VIYSDGRRTFYGDSVK	GSQAGTFDS	0.72 / 0.43 / 0.46 / 0.31 / 0.45 / 0.68	0 of 18
GFNLNSYGIS	VIYSDGRRTFYADSVK	GWTAGTFDS	n.d. / n.d. / n.d. / n.d. / n.d. / n.d.	0 of 18
GFDLNSYGIS	VIYSDGRRSFYADSVK	GRQAGTFDS	0.58 / 0.14 / -0.24 / -0.19 / 0.98 / 0.82	0 of 18
HFHLNSYGIS	VIYSDGRRTFYADSVK	GRTAGTFDS	0.38 / 1.18 / 1.24 / 1.37 / 2.23 / 1.04	0 of 18
GFYLNEYGIS	VIYSDGRRTFYGDSVK	GQAAGTFDS	0.83 / 1.00 / 0.22 / 1.68 / 1.21 / 1.35	0 of 18
GFNLNSYGIS	VIYSDGRRTFYKDSVK	GRQAGTFDS	0.69 / 1.22 / 1.00 / 1.46 / n.d. / 0.78	0 of 18
GFELNEYGIS	VIYSDGRRTFYMDSVK	GRTAGTFDS	0.65 / 0.57 / 0.43 / 0.12 / 0.48 / 0.50	0 of 18
GFVLNSYGIS	VIYSDGRRTFYADSVK	GREAGTFDT	n.d. / 1.04 / 0.57 / 0.85 / 0.76 / 0.68	0 of 18
GFTLNSYGIS	VIYSDGRRTFYSDSVK	GVEAGTFDS	0.30 / 0.41 / -0.28 / -0.16 / 0.26 / 0.02	0 of 18
GFDLNSYGIS	VIYSDGRRTFYVDSVK	GRQAGTFDA	n.d. / n.d. / n.d. / n.d. / n.d. / n.d.	0 of 18
GFDLNSYGIS	VIYSDGRRTFYVDSVK	GQAAGTFDL	n.d. / n.d. / n.d. / n.d. / n.d. / n.d.	0 of 18
GFTLDSYGIS	VIYSDGRRTFYGDSVK	GRTAGTFDQ	n.d. / 1.35 / 1.73 / 0.89 / 0.74 / 0.55	0 of 18
GFTLNSYGIS	VIYSDGRRTFYADSVK	GRLAGTFDT	0.27 / 0.40 / -0.16 / 1.57 / -0.49 / 0.76	1 of 18 (1.93)
GFTLNSYGIS	VIYSDGRRTFYSDSVK	GQEAGTFDA	-0.10 / 0.15 / 0.05 / -0.35 / -0.30 / 0.14	0 of 18
GFDLNSYGIS	VIYSDGRRTFYGDSVK	GREAGTFDQ	1.36 / 0.93 / 0.87 / -0.06 / -0.05 / 0.41	0 of 18
GFWLNDYGIS	VIYSDGRRTFYADSVK	GRAAGTFDS	2.08 / n.d. / n.d. / n.d. / 1.96 / n.d.	0 of 18
GFDLNSYGIS	VIYSDGRRTFYQDSVK	GRLAGTFDS	0.71 / 0.85 / 0.52 / 1.05 / 0.42 / 0.76	0 of 18
GFSLNSYGIS	VIYSDGRRTFYADSVK	GVEAGTFDS	n.d. / n.d. / n.d. / 2.17 / n.d. / n.d.	0 of 18

Picked from the list: the 5 lowest averages where every replicate gave a value.

CDR-H1	CDR-H2	CDR-H3	log10 Kd, replicates	empty controls
GFSLNEYGIS	VIYSDGRRTFYIDSVK	GREAGTFDS	-0.68 / -0.49 / -0.14 / -0.45 / -0.54 / -0.11	0 of 18
GFTLNSYGIS	VIYSDGRRTFYSDSVK	GQEAGTFDA	-0.10 / 0.15 / 0.05 / -0.35 / -0.30 / 0.14	0 of 18
GFDLNSYGIS	VIYSDGRRTFYGDSVK	GRIAGTFDT	0.08 / -0.09 / 0.25 / -0.25 / -0.24 / 0.03	1 of 18 (2.75)
GFDLNSYGIS	VIYSDGRRTFYKDSVK	GKTAGTFDS	-0.01 / -0.12 / 0.01 / -0.27 / 0.04 / 0.15	1 of 18 (2.44)
GFDLNSYGIS	VIYSDGRRTFYIDSVK	GKTAGTFDS	0.31 / 0.07 / -0.04 / -0.01 / -0.09 / 0.07	1 of 18 (3.76)

Reference: Li et al. 2023, doi:10.1038/s41467-023-39022-2. File: FLAb, binding data.